# Results: patent USRE50230E1, “Method of treatment of hypoxia inducible factor (HIF)-related conditions” (GRIFOLS WORLDWIDE OPERATIONS LIMITED, priority 2014, dated 2024)
# Test system: HIF1alpha protein
# Test: HIF1alpha protein levels by ELISA in SH-SY5Y cells
# Assay type: cell-based, human
# Conditions: negative control, 1 mg/mL or 4 mg/mL
# Method: Human neuroblastoma SH-SY5Y cell line cells, cultured in serum free media were treated with plasma derived ApoTf and HoloTf (in both cases at a concentration of 1 mg/mL and 4 mg/mL) for 6 hours under normoxia (21% oxygen) and hypoxia conditions (1% oxygen). As controls, untreated cells or cells treated with human serum albumin (HSA) at a concentration of 1 mg/mL or 4 mg/mL, are used. After 6 hrs intracellular proteins were harvested and tested for HIF1alpha protein levels by ELISA.
# Experiment performed in example 1 was repeated but performing treatments for 24 hours and only under normoxic conditions. After 24 hrs intracellular proteins were harvested and tested for HIF1 alpha protein levels by ELISA.
# After 6 hrs, intracellular proteins were harvested and tested for HIF1 alpha protein levels by ELISA. […] As also can be seen in said figure, all mixtures of ApoTf and HoloTf upregulate HIF1alpha protein in SH-SY5Y neuronal cells.
# Transferrin may act synergistically with other HIF activating small molecules, such as other iron chelators or enzyme inhibitors. This could allow lower levels of these small molecules to be administered, eliciting fewer side effects but retaining high therapeutic levels. […]
substance,measurement,value
human serum albumin: human serum albumin used as negative control protein [reference compound],HIF1-α levels,no effect
